Measured values from US20140187548A1, “6 SUBSTITUTED IMIDAZOPYRAZINES FOR USE AS MPS-1 AND TKK INHIBITORS IN THE TREATMENT OF HYPERPROLIFERATIVE DISORDERS” (BAYER INTELLECTUAL PROPERTY GMBH, priority 2010, published 2014).

Amino acid sequences for entries named in this document (tags omitted).
UniProt P33981, whole entry: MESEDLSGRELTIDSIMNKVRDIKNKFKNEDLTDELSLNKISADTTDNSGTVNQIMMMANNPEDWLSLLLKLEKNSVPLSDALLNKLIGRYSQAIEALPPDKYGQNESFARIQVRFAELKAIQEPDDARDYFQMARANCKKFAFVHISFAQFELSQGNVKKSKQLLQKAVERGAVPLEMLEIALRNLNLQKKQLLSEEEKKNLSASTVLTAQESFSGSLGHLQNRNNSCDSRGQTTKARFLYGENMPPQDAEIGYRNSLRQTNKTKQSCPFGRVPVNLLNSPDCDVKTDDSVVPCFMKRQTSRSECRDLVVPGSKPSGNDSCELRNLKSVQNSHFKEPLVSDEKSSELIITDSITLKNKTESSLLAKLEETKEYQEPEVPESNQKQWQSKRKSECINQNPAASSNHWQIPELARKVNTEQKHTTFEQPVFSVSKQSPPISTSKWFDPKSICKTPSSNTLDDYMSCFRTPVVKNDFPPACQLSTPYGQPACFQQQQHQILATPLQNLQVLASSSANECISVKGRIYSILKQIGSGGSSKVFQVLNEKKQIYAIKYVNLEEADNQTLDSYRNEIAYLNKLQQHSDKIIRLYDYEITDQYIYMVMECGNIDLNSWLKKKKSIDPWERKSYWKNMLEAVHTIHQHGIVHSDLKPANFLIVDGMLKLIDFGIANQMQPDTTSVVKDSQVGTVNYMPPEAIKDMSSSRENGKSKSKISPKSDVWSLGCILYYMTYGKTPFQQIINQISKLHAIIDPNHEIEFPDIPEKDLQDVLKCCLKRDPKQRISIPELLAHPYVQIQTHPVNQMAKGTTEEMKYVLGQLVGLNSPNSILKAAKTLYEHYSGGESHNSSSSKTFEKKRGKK

Target: human kinase Mps-1 (Homo sapiens, UniProt P33981)
Test: Mps-1 kinase assay (TR-FRET)
Settings: read-out: Mps-1 IC50; N-terminally GST-tagged human full length recombinant Mps-1; 10 μM ATP; 1 μM peptide substrate; 15 min pre-incubation; 60 min at 22° C.

Q: For `Cc1cc(-c2cnc3c(NCC4CN(C)CCO4)nc(-c4ccc(F)cc4)cn23)ccc1C(=O)NC1CC1` (stereo not shown), which IC50 is on record?
A: 0.037 µM
